# In patent publication US10125100B2, “Kinase inhibitors” (Respivert Limited, priority 2014, dated 2018):
# Assay: Hydrolytic stability study
# Type: physicochemical
# Details: DMSO/water (3:1), 1 mg/mL, 60° C., 307 min
# Procedure: Chemical stability of compounds of the invention was assessed in a mixture of DMSO and water (3:1) at a test compound concentration of 1 mg/mL.
# General HPLC Procedure • Agilent, Waters X-Select C18, 2.5 μm, 4.6×30 mm column, 4 min method, 5-95% MeCN/water (0.1% formic acid). Flow rate 2.5 mL/min. Column Oven Temperature 40° C. Detection 254 nm.
# Sample Preparation • A 1.0 mg sample of test compound was dissolved in 750 μL of DMSO. Water (250 μL) was added slowly, ensuring no precipitation occurred.
# Recording Stability • A 50 μL aliquot of the test solution was removed and analysed in duplicate by 5 μL HPLC injections. The peak area for the test compound was recorded following manual integration of the corresponding UV trace. • The test solution was heated to 60° C., with stirring, and 50 μL aliquots removed for HPLC analysis at 5 and 24 h timepoints.
smiles,measurement,value
"COc1cc(Nc2cc(Oc3ccc(NC(=O)Nc4cc(C(C)(C)C)cc(NS(C)(=O)=O)c4OC)c4ccccc34)ccn2)ccc1P(C)(=O)O [Example 44, (4-((4-((4-(3-(5-(tert-Butyl)-2-methoxy-3-(methylsulfonamido)phenyl)ureido)naphthalen-1-yl)oxy)pyridin-2-yl)amino)-2-methoxyphenyl)(methyl)phosphinic acid]",% Parent Remaining,102%
